This is a sample that favours compounds with a hit; in the whole collection about 4.2% have one here.
ALR inh = human ALR oxidase inhibition via reduced H2O2; P55789; purified ALR, DTT oxidation, H2O2 HRP-luminol luminescence; inhibition, % (concentration not given with the values); 3.8% of 290,000 active; AID 485317;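 active = mean and each replicate at 75% or more; inconclusive = only one of the two met; inactive = neither met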;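 note: stock transfer was 7.5 nL into about 7.5 µL; 0% = neutral wells and 100% = wells with inactivated enzyme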
HDAC3 inh = HDAC3 deacetylase inhibitors, primary screen, biochemical, fluorescence, cell-free homogeneous. inhibition, % at 8.3 µM. hit rate 0.15% among 320,000. Histone deacetylase 3 (Homo sapiens), O15379. recombinant HDAC3, fluorogenic peptide/trypsin coupled; in the data active means inhibition above about 26%, passing the limit was not always enough; inconclusive means no clear call, values can overlap the other calls
Yeast UUG start = yeast start codon fidelity modulation; AID 602363; activity score, % at 18.7 µM; S. cerevisiae UUG-firefly luciferase reporter, luminescence/redox ratio; 0.13% of 350,000 active;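 active means replicate mean at a twofold rise or more, about +100% in these data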;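 further: firefly luciferase made from a UUG start codon reports start codon fidelity; reporter light over untreated wells divided by growth signal over untreated wells; some hits fall short of that in this replicate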
MC4R ag barr = MC4R agonists recruiting beta-arrestin, primary screen, cell-based, luminescence, agonist arm of biased-ligand search; hit rate 0.98% among 360,000; activation, % at 8.9 µM; Melanocortin receptor 4 (Homo sapiens), P32245; U2OS MC4R beta-arrestin complementation; percent of melanotan II response, DMSO zero;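 active means activation above a per-plate cutoff, the mean activation of sample wells on that plate plus 3 SD, cut at about 8% in these data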
NALP1 inh = NALP1 inflammasome inhibitors in reconstituted yeast, colorimetric, S. cerevisiae, triplicate retest; S. cerevisiae NALP1/ASC/caspase-1 growth, X-gal OD620, 72 h; inhibition, % at 10 µM; hit rate 0.61% among 280,000; in the data active means inhibition mostly above about 24%, no sharp cut-off; inactive means mostly below about 32%
MC4R antagonist = MC4R antagonists of cAMP signaling, primary screen, cell-based, TR-FRET, antagonist arm of biased-ligand search; Melanocortin receptor 4 (Homo sapiens), P32245; MC4R-expressing cells, MTII-stimulated cAMP, LANCE TR-FRET; hit rate 0.48% among 360,000; inhibition, % at 6.5 µM;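 active means inhibition above its plate's cutoff, the mean of tested wells on that plate plus 3 SD, cut at about 29% in these data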
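Assay system: U2OS-MC4R stable cell line; Also added: Melanotan II; Technique: Eu-cAMP/anti-cAMP TR-FRET, emission 671 nm; Times: 30-min compound, 1-h challenge, 1-h detection, room temperature.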
Numbers stand for hits; i = inactive; ? = inconclusive; nt = no result.

Amino acid sequences for entries named in this document (tags omitted).
Melanocortin receptor 4 (Homo sapiens), P32245, UniProt P32245, whole entry, looked up: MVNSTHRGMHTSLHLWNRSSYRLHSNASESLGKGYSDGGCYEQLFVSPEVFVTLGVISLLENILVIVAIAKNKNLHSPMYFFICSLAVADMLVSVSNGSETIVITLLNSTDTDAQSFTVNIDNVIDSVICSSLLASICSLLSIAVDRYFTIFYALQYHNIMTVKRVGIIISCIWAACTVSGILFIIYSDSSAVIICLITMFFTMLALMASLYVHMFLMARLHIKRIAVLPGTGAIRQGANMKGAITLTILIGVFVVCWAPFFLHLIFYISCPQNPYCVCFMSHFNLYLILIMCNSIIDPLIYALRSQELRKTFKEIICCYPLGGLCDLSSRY

SMILES	ALR inh	HDAC3 inh	Yeast UUG start	MC4R ag barr	NALP1 inh	MC4R antagonist
O=C(NCCCN1CCOCC1)c1ccccc1N1C(=O)[C@@H]2Cc3c([nH]c4ccccc34)C(c3ccc(F)cc3)N2C1=O (stereo not given in full)	i	i	i	i	i	i
COc1cccc(C2c3[nH]c4ccccc4c3C[C@H]3C(=O)N(c4ccccc4C(=O)NCCCN4CCOCC4)C(=O)N23)c1 (stereo not given in full)	98.5	i	i	i	i	i
O=C(NCCN1CCOCC1)c1ccccc1N1C(=O)[C@@H]2Cc3c([nH]c4ccccc34)C(c3ccccc3)N2C1=O (stereo not given in full)	99.2	i	i	i	i	i
COc1ccc(OC)c(-c2nc(C(=O)NCCCN3CCOCC3)cc3c2[nH]c2ccccc23)c1	i	i	i	i	i	i
C[C@@H]1CCCCO[C@@H](CN(C)S(=O)(=O)c2cn(C)cn2)[C@H](C)CN([C@H](C)CO)C(=O)c2cc(NC(=O)CCC(F)(F)F)ccc2O1	nt	nt	i	nt	nt	nt
Fc1ccc(-c2nnn(Cc3ccccc3Cl)n2)cc1	i	i	i	i	i	i
Cc1ccccc1Cn1nnc(-c2ccc(F)cc2)n1	92.9	i	i	i	i	i
O=C(C[C@H]1CC[C@@H]2[C@H](COC[C@H](O)CN2C(=O)c2ccc(F)cc2)O1)Nc1nccs1	nt	nt	i	nt	nt	nt
Cc1cc(C)c(C#N)c(SCc2ccc(F)cc2)n1	i	i	nt	i	i	i
CCc1c(C)nc(SCC(=O)Nc2nc(-c3ccc(OC)cc3)cs2)[nH]c1=O	98.9	nt	nt	i	i	i
CCc1nc(SCc2ccc(F)cc2)[nH]c(=O)c1C#N	98.2	i	i	i	i	i
CCc1c(C)nc(SCC(=O)NNC(=O)Cc2ccc(OC)cc2)[nH]c1=O	i	nt	i	i	nt	i
CCc1nc(SCc2cccnc2)[nH]c(=O)c1C	99.2	i	i	i	i	i
Nc1ccccc1SCc1csc(-c2ccc(Cl)cc2)n1	98.4	i	i	i	40.2	i
C[C@@H]1CN([C@H](C)CO)C(=O)Cc2cc(NC(=O)Nc3cccc4ccccc34)ccc2O[C@@H]1CN(C)Cc1ccc2c(c1)OCO2	nt	nt	i	nt	nt	nt
C[C@H](CO)N1C[C@H](C)[C@H](CN(C)S(=O)(=O)c2ccccc2)OCCCC[C@H](C)Oc2ccc(NC(=O)Nc3ccc(F)cc3)cc2C1=O	nt	nt	i	nt	nt	nt
CO[C@@H]1CN(C)C(=O)c2ccc(NC(C)=O)cc2OC[C@H](C)N(Cc2ccncc2)C[C@H]1C	nt	nt	i	nt	nt	nt
CCOC(=O)Cc1cnc(NC(=O)CSc2nc(C(C)C)cc(=O)[nH]2)s1	i	i	i	i	i	i
CCCc1cc(=O)[nH]c(SCc2cccnc2)n1	97.2	i	nt	i	i	i
CCOC(=O)Cc1cnc(NC(=O)CSc2nc(C)c(CC)c(=O)[nH]2)s1	99.1	i	nt	i	i	i
c1ccc(-c2nc(CSc3nnc(-c4cccs4)o3)cs2)cc1	98.0	i	i	i	nt	i
CCCc1cc(=O)[nH]c(SCc2ccccc2)n1	nt	i	i	i	i	i
O=C(CSc1nc2ccccc2[nH]1)Nc1nc(-c2ccc(Br)cc2)cs1	97.8	i	nt	i	i	i
C=CCn1c(SCc2csc(-c3ccc(Cl)cc3)n2)nnc1-c1ccccc1OC	81.5	i	nt	i	i	i
C=CCn1c(SCC(=O)N(C)c2c(N)n(Cc3ccccc3)c(=O)[nH]c2=O)nnc1-c1ccccc1OC	i	i	i	i	i	i
CCCc1cc(=O)[nH]c(SCC(=O)Nc2nc(-c3ccccc3)cs2)n1	98.8	?	nt	i	i	i
CCCc1cc(=O)[nH]c(SCc2csc(-c3ccccc3)n2)n1	98.8	i	nt	i	i	i
Cc1cc(C)nc(SCc2csc(-c3ccccc3)n2)n1	98.8	i	nt	i	i	i
